Test results: patent publication US10214765B2, “Cell-permeable probes for identification and imaging of sialidases” (Academina Sinica, priority 2012, dated 2019)

The chains behind the UniProt entries cited, without tags or fusion partners.
UniProt P03470, whole entry, looked up: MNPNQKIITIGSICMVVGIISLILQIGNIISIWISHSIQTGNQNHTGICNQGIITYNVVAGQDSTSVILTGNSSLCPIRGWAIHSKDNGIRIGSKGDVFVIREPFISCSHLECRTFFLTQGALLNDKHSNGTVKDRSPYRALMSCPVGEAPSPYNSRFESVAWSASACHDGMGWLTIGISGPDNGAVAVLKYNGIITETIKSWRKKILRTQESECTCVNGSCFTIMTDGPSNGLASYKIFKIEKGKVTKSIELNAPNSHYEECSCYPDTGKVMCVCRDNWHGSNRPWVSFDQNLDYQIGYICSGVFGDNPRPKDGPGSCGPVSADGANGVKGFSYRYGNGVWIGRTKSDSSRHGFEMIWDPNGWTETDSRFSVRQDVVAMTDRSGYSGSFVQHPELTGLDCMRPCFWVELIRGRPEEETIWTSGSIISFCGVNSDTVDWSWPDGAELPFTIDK

Target: influenza neuraminidase (A/WSN/1933/H1N1) (Influenza A virus, UniProt P03470)
Assay: DFSA adduct formation on influenza virus, SDS-PAGE, click detection
Type: binding, influenza virus A/WSN/1933/H1N1
Settings: neuraminidase at the surface of influenza virus; FIG. 2B

C#CCCC(=O)NC1C(O)C(F)C(F)(C(=O)O)OC1[C@H](O)[C@H](O)CO (stereo partly drawn) [DFSA-5-yne, 5-(Pent-4-ynamido)-2,3,5-trideoxy-3-fluoro-D-erythro-β-L-manno-non-2-ulopyranosylonic fluoride]
fluorosialosyl-enzyme adduct formation: formed a DFSA adduct
